Laboratory results published in patent US20120178815A1, “Compositions of (-)-E-10-OH-NT and Methods for Their Synthesis and Use” (Adolor Corporation, priority 2007, published 2012).

By UniProt entry, the sequences of proteins in these tests, tags left out.
UniProt P31652, whole entry: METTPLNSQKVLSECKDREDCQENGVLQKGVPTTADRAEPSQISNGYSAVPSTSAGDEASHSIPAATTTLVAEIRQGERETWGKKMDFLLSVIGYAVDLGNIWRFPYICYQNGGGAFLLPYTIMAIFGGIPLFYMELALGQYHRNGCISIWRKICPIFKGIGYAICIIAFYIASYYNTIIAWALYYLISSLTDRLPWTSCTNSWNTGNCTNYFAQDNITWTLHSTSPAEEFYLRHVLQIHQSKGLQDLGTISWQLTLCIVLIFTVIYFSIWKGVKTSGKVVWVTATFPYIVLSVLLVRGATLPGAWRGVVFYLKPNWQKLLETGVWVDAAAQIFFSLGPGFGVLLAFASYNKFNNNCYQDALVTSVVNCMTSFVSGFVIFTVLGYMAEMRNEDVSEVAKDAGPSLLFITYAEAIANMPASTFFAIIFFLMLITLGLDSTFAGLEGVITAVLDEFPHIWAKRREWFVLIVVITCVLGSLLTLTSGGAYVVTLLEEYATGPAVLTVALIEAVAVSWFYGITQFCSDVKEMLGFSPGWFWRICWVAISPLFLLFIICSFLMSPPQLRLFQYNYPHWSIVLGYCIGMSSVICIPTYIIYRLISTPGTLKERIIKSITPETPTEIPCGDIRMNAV

Molecular target: T1, 5HT uptake, rat brain synaptosomes (Rattus norvegicus, UniProt P31652)
T1 construct: into rat brain synaptosomes; from tissue; host or cells: rat brain synaptosomes
Assay: Inhibition of [3H]-5HT uptake into synaptosomes
Assay type: biochemical

Question: With `CNCCC=C1c2ccccc2CCc2ccccc21` [NT, nortriptyline, reference compound] as the molecule, how does the pIC50 read?
Answer: 7.00

pIC50: −log10 of the molar value.
